Eleven molecules from PMC10304876 (Molecules, 2023) can be followed below.

Amino acid sequences for entries named in this document (tags omitted). A change or cut given only in a name is not applied to a line headed by its entry.
UniProt P35372, whole entry: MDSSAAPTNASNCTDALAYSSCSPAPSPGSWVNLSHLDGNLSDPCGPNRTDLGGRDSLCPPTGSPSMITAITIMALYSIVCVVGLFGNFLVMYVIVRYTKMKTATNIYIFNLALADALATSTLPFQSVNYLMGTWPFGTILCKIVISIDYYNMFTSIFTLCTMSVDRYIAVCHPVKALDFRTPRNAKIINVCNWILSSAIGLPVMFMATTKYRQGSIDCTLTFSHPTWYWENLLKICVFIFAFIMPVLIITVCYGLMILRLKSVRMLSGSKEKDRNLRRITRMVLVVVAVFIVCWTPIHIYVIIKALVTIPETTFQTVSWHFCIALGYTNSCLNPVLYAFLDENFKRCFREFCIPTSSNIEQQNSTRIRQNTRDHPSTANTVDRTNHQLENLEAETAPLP
UniProt P41145: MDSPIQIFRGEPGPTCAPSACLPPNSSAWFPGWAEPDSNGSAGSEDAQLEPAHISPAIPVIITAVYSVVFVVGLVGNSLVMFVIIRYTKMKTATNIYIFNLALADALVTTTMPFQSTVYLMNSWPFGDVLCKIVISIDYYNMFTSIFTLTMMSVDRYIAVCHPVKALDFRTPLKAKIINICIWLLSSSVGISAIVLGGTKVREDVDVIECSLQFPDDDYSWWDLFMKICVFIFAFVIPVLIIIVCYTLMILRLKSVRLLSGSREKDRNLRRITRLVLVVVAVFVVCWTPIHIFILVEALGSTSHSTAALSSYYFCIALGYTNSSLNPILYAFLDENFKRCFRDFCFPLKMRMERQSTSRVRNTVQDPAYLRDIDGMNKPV

For assay [1], the target named is T1, human μ-opioid receptor (OPRM1) (Homo sapiens, UniProt P35372).
In assay [2] the target is T1, human μ-opioid receptor (OPRM1). The experiment in a line: cell-based. To be noted: for EC50: MOR Agonist EC50 ± SEM (nM); for Emax: OPRM1, read-out: MOR Agonist %Emax ± SEM.
The target is the same in assay [3]. To be noted: for EC50: read-out: MOR Agonist EC50 ± SEM.
Assay [4] concerns the target T2, human κ-opioid receptor (OPRK1) (Homo sapiens, UniProt P41145). The experiment in a line: cell-based.
Assay [5] concerns the target T2, human κ-opioid receptor (OPRK1).

“And” between values parts separate entries of the source, which are not always exact repeats. Equal values may be shown once. Read-outs that look alike come from different tables or passages of the source.

Turning to `OC[C@@H]1[C@H]2CCC[C@]1(c1cccc(O)c1)CCN2CCc1ccccc1` [Compound 10, 3-((1R,5S,9S)-9-(Hydroxymethyl)-2-phenethyl-2-azabicyclo[3.3.1]nonan-5-yl)phenol], the “MOR Antagonist %Imax ± SEM” value in assay [1] was 91 ± 34 (173 ± 24%). Also, the half-maximal effective concentration (EC50) in assay [2] was above 10000 nM. For the same molecule, the “MOR Agonist EC50 ± SEM (nM)” value in assay [3] is “did not have any MOR agonist activity”.
For `OC[C@H]1[C@H]2CCC[C@]1(c1cccc(O)c1)CCN2CCc1ccccc1` [Compound 11, 3-((1R,5S,9R)-9-(Hydroxymethyl)-2-phenethyl-2-azabicyclo[3.3.1]nonan-5-yl)phenol], the EC50 in assay [2] was 2.05 nM and 2 nM; in assay [4], above 10000 nM. In assay [2], the maximal effect (Emax) is 99%.
`OC[C@H]1[C@@H]2CCC[C@@]1(c1cccc(O)c1)CCN2CCc1ccccc1` [Compound 15, 3-((1S,5R,9R)-9-(Hydroxymethyl)-2-phenethyl-2-azabicyclo[3.3.1]nonan-5-yl)phenol]: in assay [1], the “MOR Antagonist %Imax ± SEM” value was 13 ± 6 (96 ± 8%). Also, in assay [2], the Emax is 26%. In assay [4], the 50% effective concentration (EC50) is above 10000 nM.
In the case of `OC[C@@H]1[C@@H]2CCC[C@@]1(c1cccc(O)c1)CCN2CCc1ccccc1` [Compound 16, 3-((1S,5R,9S)-9-(Hydroxymethyl)-2-phenethyl-2-azabicyclo [3.3.1]nonan-5-yl)phenol], in assay [2], it took 203 nM to reach a half-maximal effect (EC50) and the maximal effect (Emax) is 54%.
As to `OCC[C@H]1[C@@H]2CCC[C@@]1(c1cccc(O)c1)CCN2CCc1ccccc1` [Compound 21, 3-((1S,5R,9R)-9-(2-Hydroxyethyl)-2-phenethyl-2-azabicyclo[3.3.1]nonan-5-yl)phenol], in assay [2], the EC50 was 0.91 nM and 0.9 nM; the Emax is 85%. In assay [4], this molecule displayed a concentration giving a half-maximal response (EC50) above 10000 nM. In assay [5], the “KOR Agonist EC50 ± SEM (nM)” value is recorded as “did not have any KOR agonist activity”.
Consider `OCC[C@@H]1[C@@H]2CCC[C@@]1(c1cccc(O)c1)CCN2CCc1ccccc1` [Compound 22, 3-((1S,5R,9S)-9-(2-Hydroxyethyl)-2-phenethyl-2-azabicyclo[3.3.1]nonan-5-yl)phenol], for which, in assay [2], the EC50 was determined as 35 nM and the Emax is 83%.
For the molecule `OCCC[C@H]1[C@H]2CCC[C@]1(c1cccc(O)c1)CCN2CCc1ccccc1` [Compound 34, 3-((1R,5S,9R)-9-(3-Hydroxypropyl)-2-phenethyl-2-azabicyclo[3.3.1]nonan-5-yl)phenol], in assay [2], the half-maximal effective concentration (EC50) was 0.32 nM and 0.3 nM; the Emax was 100%. The EC50 in assay [4] is above 10000 nM.
For the molecule `OCCC[C@@H]1[C@H]2CCC[C@]1(c1cccc(O)c1)CCN2CCc1ccccc1` [Compound 35], in assay [2], the Emax is 52%. Further, in assay [3], the EC50 was found to be 35 nM.
Consider `OCCC[C@H]1[C@@H]2CCC[C@@]1(c1cccc(O)c1)CCN2CCc1ccccc1` [Compound 36], for which the maximal response (Emax) in assay [2] was 65%. The figures for the EC50 in assay [4] and in assay [3] were above 10000 nM and 1.2 nM, respectively.
`OCCC[C@@H]1[C@@H]2CCC[C@@]1(c1cccc(O)c1)CCN2CCc1ccccc1` [Compound 39, 3-((1S,5R,9S)-9-(3-Hydroxypropyl)-2-phenethyl-2-azabicyclo[3.3.1]nonan-5-yl)phenol]: the “MOR Antagonist %Imax ± SEM” value in assay [1] is 1420 ± 265 (106 ± 11%). Moreover, in assay [2], the half-maximal effective concentration (EC50) is 37 nM and the Emax was found to be 37%.
As to `COC[C@H]1[C@H]2CCC[C@]1(c1cccc(O)c1)CCN2CCc1ccccc1` [Compound 41, 3-((1R,5S,9R)-9-(Methoxymethyl)-2-phenethyl-2-azabicyclo[3.3.1]nonan-5-yl)phenol], in assay [2], the concentration for a half-maximal effect (EC50) is 0.65 nM and 0.7 nM; the Emax was 100%. For the same molecule, in assay [4], the concentration giving a half-maximal response (EC50) was above 10000 nM.

In general, EC50 refers to the midpoint of the concentration-response curve. In general, Emax refers to the size of the effect at its maximum, as opposed to the concentration needed.
